The results in this text go back to US4205171A, “Aminomethanobenzazocines and nitromethanobenzazocines” (Sterling Drug Inc., priority 1978, dated 1980).

This assay has as its system phenazocine (agonist effect in rat tail-flick). In words: Tail-flick antagonist test against phenazocine. The note with it: both subcutaneously and orally.

Take `CC(C)=CCN1CCC2(C)c3cc(O)ccc3CC1C2C` (stereo not shown) [pentazocine, reference compound]: the “Potency relative to the compound of Example 1B in the tail-flick antagonist test against phenazocine” value is reported as “significantly less potent”.
